Our source for the Ki values is BindingDB's records for PubMed 8301592 (Washington University, 1994).

Sequences of proteins named here, by UniProt entry; tags and fusion partners are left off.
UniProt P21917, whole entry: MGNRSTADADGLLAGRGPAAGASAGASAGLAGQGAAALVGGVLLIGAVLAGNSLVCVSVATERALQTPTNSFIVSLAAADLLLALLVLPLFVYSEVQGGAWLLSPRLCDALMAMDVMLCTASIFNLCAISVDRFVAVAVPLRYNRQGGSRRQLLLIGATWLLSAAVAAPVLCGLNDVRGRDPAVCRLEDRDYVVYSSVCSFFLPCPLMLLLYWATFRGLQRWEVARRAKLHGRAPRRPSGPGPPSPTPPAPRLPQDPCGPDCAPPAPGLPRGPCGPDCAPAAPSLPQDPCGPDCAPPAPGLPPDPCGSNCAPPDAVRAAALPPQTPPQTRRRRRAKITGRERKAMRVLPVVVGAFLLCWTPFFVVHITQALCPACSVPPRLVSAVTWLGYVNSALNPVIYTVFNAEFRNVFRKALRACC
UniProt P19020, whole entry: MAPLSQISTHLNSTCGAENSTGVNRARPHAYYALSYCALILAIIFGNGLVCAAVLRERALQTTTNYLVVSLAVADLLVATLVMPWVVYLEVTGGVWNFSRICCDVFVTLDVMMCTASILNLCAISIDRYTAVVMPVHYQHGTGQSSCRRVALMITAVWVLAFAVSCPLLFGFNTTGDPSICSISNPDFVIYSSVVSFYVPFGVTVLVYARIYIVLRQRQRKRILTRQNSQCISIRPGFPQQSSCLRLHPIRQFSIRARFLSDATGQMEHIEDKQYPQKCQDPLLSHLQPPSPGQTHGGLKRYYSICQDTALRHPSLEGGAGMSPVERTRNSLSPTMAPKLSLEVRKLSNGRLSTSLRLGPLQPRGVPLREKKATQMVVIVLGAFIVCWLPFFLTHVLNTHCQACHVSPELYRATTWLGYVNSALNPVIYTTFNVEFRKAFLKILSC

One assay has as its target D(4) dopamine receptor (Homo sapiens, UniProt P21917). Conditions: Ki (nM).
A further assay addresses D(3) dopamine receptor (Rattus norvegicus, UniProt P19020).

Values joined by “and” are separate entries in the source; they are usually repeats but may differ in a detail not shown here. Equal values may be shown once.

`CCN1CCCC1CNC(=O)c1cc(S(N)(=O)=O)ccc1OC` (configuration not stated) [N-[(1-ethylpyrrolidin-2-yl)methyl]-2-methoxy-5-sulfamoylbenzamide]: the Ki at D(4) dopamine receptor was 21.5 nM and 20 nM. For `CNc1cc(OC)c(C(=O)N[C@H]2CCN(Cc3ccccc3)[C@H]2C)cc1Cl` [Nemonapride], the Ki at D(3) dopamine receptor is 0.06 nM and 0.05 nM.

As usually defined, the Ki is a dissociation constant, usually derived from enzyme kinetics or from competition with a known ligand. Lower therefore signals a stronger hold on the target.
